Measured values from publication PMC3857224, “Inhibition of DNA Glycosylases via Small Molecule Purine Analogs” (PLoS ONE, 2013).

Chains of the proteins cited; added tags and fusions are not shown.
UniProt Q96FI4, whole entry: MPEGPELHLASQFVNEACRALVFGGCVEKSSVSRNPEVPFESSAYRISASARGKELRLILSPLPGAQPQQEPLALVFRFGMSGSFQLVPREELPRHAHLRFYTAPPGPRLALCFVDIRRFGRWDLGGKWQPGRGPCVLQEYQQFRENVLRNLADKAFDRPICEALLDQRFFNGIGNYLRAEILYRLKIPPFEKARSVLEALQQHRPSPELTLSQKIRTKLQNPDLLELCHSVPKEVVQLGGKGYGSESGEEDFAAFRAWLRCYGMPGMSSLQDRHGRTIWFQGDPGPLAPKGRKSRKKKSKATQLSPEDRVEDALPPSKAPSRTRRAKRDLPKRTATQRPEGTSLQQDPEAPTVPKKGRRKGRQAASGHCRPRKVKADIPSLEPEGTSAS

Tests used:
[1] = biological target: T1, NEIL1 (Homo sapiens, UniProt Q96FI4); assay: gel-based incision assay of oligodeoxynucleotides containing site-specific base lesions; assay type: biochemical; details: read-out: Gel Assay IC50; polyacrylamide gel, reaction quenched at 20 min
[2] = biological target: T1, NEIL1; assay: qHTS fluorogenic glycosylase/AP lyase assay, 1536-well, Sp/Gh substrate; assay type: biochemical; details: read-out: qHTS IC50, 5 concentrations
Method: The fluorogenic assay was miniaturized to 4 µL in 1536-well black solid plates by optimization of the enzyme and Sp/Gh substrate concentrations. Briefly, 3 µL of 25 nM NEIL1 were dispensed into each well of a 1536-well plate (except buffer in columns 3 and 4 as a negative control). Compounds (DMSO solutions) and control (DMSO only) (23 nL) were transferred to the plate via Kalypsys pintool. The plate was incubated for 15 min at room temperature, and then 1 µL of the Sp/Gh-containing DNA substrate (75 nM final concentration) was added to start the reaction. The plate was immediately transferred into the ViewLux reader for the kinetic fluorescence read. Initial rate data were normalized against uninhibited and no-enzyme controls and the resulting percent activities as a function of compound concentration were fitted using the Hill equation.
Having established the general principle for a glycosylase screening assay, further assay development was undertaken to enable HTS in which the reaction volumes were reduced by 5-fold to a total of 4 µL. Initially, the library of pharmacologically active compounds (LOPAC^1280) was screened for inhibitors of NEIL1 as a determination of the feasibility of this high-throughput method. […] All compounds were screened at 5 different concentrations that allowed for the initial estimation of inhibitory potency (IC50) values, as well as an evaluation of the shape of the response curves. In addition to the anticipated inhibitors (known DNA intercalators, such as ellipticine (IC50 = 2 µM)) and other small molecules that have been previously established to be promiscuous inhibitors (such as aurintricarboxylic acid (IC50<1 µM)), one interesting hit from this screen was CGP-74514A (NCGC ID is NCGC00015229) (Figure 5A). CGP-74514A is a known small molecule inhibitor of Cdk1 in which the structure of this molecule is based on a purine ring backbone.

IC50 [1] [µM]	IC50 [2] [µM]	SMILES
> 50	28.2	CCn1cnc2c(Nc3ccc(CCC(=O)N=C(N)N)cc3)nc(C#N)nc21
> 50	28.2	Clc1ccc(C=NNc2ncnc3[nH]cnc23)cc1
> 50	8.9	Fc1cccc(C=NNc2ncnc3[nH]cnc23)c1
